Article PMC8878317, “Chemogenomics identifies acetyl-coenzyme A synthetase as a target for malaria treatment and prevention” (Cell Chemical Biology, 2022)

Test system: histone acetylation in P. falciparum 3D7-A10
Test: Histone acetylation Western blot, wild-type 3D7-A10
Assay type: cell-based
Details: trophozoites, 3 h exposure

| SMILES | acetylation of H4K8ac, H3K9ac and tetra-acetylated H4 (H4Ac4) histone markers relative to DMSO |
| --- | --- |
| CCN(CC)S(=O)(=O)c1ccc(Cl)c(C(=O)Nc2ccc3nc(C)sc3c2)c1 [MMV019721] | dose-dependent reduction |
| O=C(NNC(=O)c1csnn1)c1ccc(Cl)cc1 [MMV084978] | dose-dependent reduction |
